Laboratory results from ChEMBL document CHEMBL4823246, “Fragment-like Chloroquinolineamines Activate the Orphan Nuclear Receptor Nurr1 and Elucidate Activation Mechanisms” (J Med Chem, 2021).
The source made the active and inactive calls. The rule behind the calls is not given here.

Target: T1, Retinoic acid receptor RXR-alpha (Homo sapiens) (UniProt P19793)
T1 sequence (whole entry): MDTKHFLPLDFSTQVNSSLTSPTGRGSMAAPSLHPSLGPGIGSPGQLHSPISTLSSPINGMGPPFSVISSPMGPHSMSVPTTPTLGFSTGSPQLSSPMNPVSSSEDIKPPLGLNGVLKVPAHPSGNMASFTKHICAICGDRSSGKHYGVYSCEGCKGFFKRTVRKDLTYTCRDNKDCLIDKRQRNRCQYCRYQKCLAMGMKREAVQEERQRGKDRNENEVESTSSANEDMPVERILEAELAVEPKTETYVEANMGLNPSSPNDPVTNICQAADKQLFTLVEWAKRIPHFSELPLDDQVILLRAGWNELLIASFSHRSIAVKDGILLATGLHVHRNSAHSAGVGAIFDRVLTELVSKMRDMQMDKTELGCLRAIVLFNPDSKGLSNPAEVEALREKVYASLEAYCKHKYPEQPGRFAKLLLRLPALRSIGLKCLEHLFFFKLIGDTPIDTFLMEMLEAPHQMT
Test: Agonist activity at full length human RxRalpha heterodimer response element DR5 expressed in HEK293T cells co-expressing firefly luciferase assessed as firefly luciferase activity up to 100 uM incubated for 12 to 14 hrs by hybrid reporter gene assay
Assay type: cell-based
Settings: filed as agonist, dose microM <=100, time 12-14 hrs
Summary of the method: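 Full-length receptor assay in HEK293T cells transiently cotransfected with pFR-Luc-DR5 reporter, human Nurr1 (pcDNA3.1-hNurr1-NE), human RXR (pSG5-hRXR) and SV40-renilla. Five hours post-transfection, compound was added in Opti-MEM with 0.1% DMSO for 12−14 h, then a dual-luciferase read-out. Firefly/renilla ×1000 gave RLU, expressed as fold over DMSO control. Duplicates, ≥3 independent experiments.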

Activity: Active
Structure (SMILES): Nc1cccc2c(Cl)cccc12
